Data: patent US20230277680A1, “CONJUGATE OF A SINGLE DOMAIN ANTIBODY, A SAPONIN AND AN EFFECTOR MOLECULE, PHARMACEUTICAL COMPOSITION COMPRISING THE SAME, THERAPEUTIC USE OF SAID PHARMACEUTICAL COMPOSITION” (SAPREME TECHNOLOGIES B.V., priority 2020, published 2023)

Tests used:
A431 cells = assay: Cell viability (MTS) assay, cell killing; type: cell-based, human; settings: for cell killing activity (in words): EGFR/HER2 expressing cells (A431, CaSKi)
Experimental: (§1) After treatment the cells were incubated for 72 hr at 37° C. before the cell viability was determined by a MTS-assay, performed according to the manufacturer's instruction (CellTiter 96® AQueous One Solution Cell Proliferation Assay, Promega). Briefly, the MTS solution was diluted 20× in DMEM without phenol red (PAN-Biotech GmbH) supplemented with 10% FBS. The cells were washed once with 200 μL/PBS well, after which 100 μL diluted MTS solution was added/well. The plate was incubated for approximately 20-30 minutes at 37° C. Subsequently, the OD at 492 nm was measured on a Thermo Scientific Multiskan FC plate reader (Thermo Scientific). For quantification the background signal of ‘medium only’ wells was subtracted from all other wells, before the cell viability percentage of treated/untreated cells was calculated, by dividing the background corrected signal of treated wells over the background corrected signal of the untreated wells (×100).
(§2) Cells were seeded in a 96 well plate at 5.000-10.000 c/w in 100 μL/well and incubated overnight at 37° C. […] The media was removed from the cell culture plate and replaced by 180 μL culture media, followed by the addition of 20 μL treatment-mix/well. […] In the case that endosomal acidification inhibitors (chloroquine (Sigma Aldrich) or bafilomycin A1 (Enzo Life Sciences)) were used, the cell culture media in step 1 of treatment was replaced by 180 μL media containing 1 μM chloroquine or 0.2 μM bafilomycin A1. The plate was incubated for 1 hour at 37° C., before the 10× treatment-mix samples were added. The remaining incubation and treatment steps were performed according to standard procedures known in the field.
(§3) After treatment the cells were incubated for 72 hr at 37° C. before the cell viability was determined by a MTS-assay, performed according to the manufacturer's instruction (CellTiter 96® AQueous One Solution Cell Proliferation Assay, Promega). Briefly, the MTS solution was diluted 20× in DMEM without phenol red (PAN-Biotech GmbH) supplemented with 10% FBS (PAN-Biotech GmbH). The cells were washed once with 200 μL PBS per well, after which 100 μL diluted MTS solution was added per well. The plate was incubated for approximately 20-30 minutes at 37° C. Subsequently, the optical density at 492 nm was measured on a Thermo Scientific Multiskan FC plate reader (Thermo Scientific). For quantification the background signal of ‘medium only’ wells was subtracted from all other wells, before the ratio of untreated/treated cells was calculated, by dividing the background corrected signal of untreated wells over the background corrected signal of the treated wells.

A431 tumor = assay: A431 xenograph mouse tumor model, tumor volume; type: in vivo; settings: Balb/c nude mice, A431 xenograft, sub-optimal ADC dose
Experimental: The conjugate was tested in a A431 (EGFR^++) xenograph mouse tumor model for EGFR tumor targeted cell killing as illustrated in FIG. 1J. Dosings started at day 12 when tumors reached ˜150 mm^3 in size and tumor volume was determined after every dosing.
Female Balb/c nude mice were injected subcutaneously with a suspension of human A431 tumor cells. Under the skin of the mice, a human epidermal carcinoma developed in the xenograft animal tumor model. After injection of the tumor cells, the xenograft tumor was allowed to develop to a size of approximately 170-180 mm^3. The A431 tumor cells have the following characteristics: high EGFR expressors, medium CD71 expressors, low HER2 expressors.
In Table 8A, the results of the treatment of control mice and tumor-bearing mice are presented. Tumor-bearing mice were treated with the indicated antibodies directed to either human Her2/neu, human EGFR, or human CD71, which are cell-surface receptors on the xenograft tumor. Cetuximab was covalently conjugated with saponin SO1861. […] The dose of the ADCs was sub-optimal in the tumor model. That is to say, from previous experiments, it was established at which sub-optimal dose of the ADCs no tumor-regression or arrest of tumor growth would be observable.
The 2 target 2-components system (2T2C) is the combination treatment of mAb1-SO1861 and mAb2-protein toxin, (FIG. 1B-D).

MDA-MB-468 cells = assay: Cell viability (MTS) assay, cell killing; type: cell-based, human; settings: titrated alone
Experimental: as §1, §2, §3

SK-BR-3 cells = assay: Cell viability (MTS) assay, cell killing; type: cell-based, human
Experimental: as §1, §2, §3

[1] = alone, equivalent concentrations

Q: For “Cetuximab: monoclonal antibody recognizing and binding human EGFR”, which “cell killing activity (in words)” value (A431 cells; + 50 μM trastuzumab-saporin) is on record?
A: The value was “could not induce any cell killing activity”.

Q: And the “cell killing activity (in words)” value (A431 cells; [1])?
A: Its value is “could not induce any cell killing activity”.

Q: What about the “outcome (death/euthanasia or survival)” value (A431 tumor) of the same substance?
A: The value was “(death/euthanasia)”.

Q: What does the source list for “T-DM1: Trastuzumab-emtansine carrying ~3.5 DM1 toxin molecules per antibody”?
A: cell killing (in words) (A431 cells; A431 cells (high EGFR, low HER2)): nanomolar concentrations; also recorded: not effective at such low toxin concentrations; IC50 (MDA-MB-468 cells): 60 nM

Q: “Trastuzumab: monoclonal antibody recognizing and binding human HER2” was tested. Which “cell killing activity (in words)” value (SK-BR-3 cells; + 1.5 μM EGFdianthin) did it give?
A: The value was “could not induce any cell killing activity”.

Q: And the “cell killing activity (in words)” value (SK-BR-3 cells; + 5 μM cetuximab-saporin)?
A: The value was “could not induce any cell killing activity”.

Q: What about the “cell killing activity (in words)” value (SK-BR-3 cells; alone) of the same substance?
A: Its value is “not observed; also recorded: could not induce any cell killing activity”.

Q: How did the “cell killing activity (in words)” value (A431 cells; [1]) turn out when “cetuximab-(Cys-L-SO1861)^3, 7: SO1861-EMCH conjugated via cysteine residues to cetuximab” was run?
A: Its value is “could not induce any cell killing activity”.

Q: For “cetuximab-SO1861: SO1861-EMCH conjugated to cysteines of cetuximab, cleavable hydrazone linker”, which “tumor size (volume)” value (A431 tumor; about 170-180 mm^3 at start of treatment) is on record?
A: The value was 2000 mm^3.

Q: How did the “cell killing activity (in words)” value (SK-BR-3 cells; alone) turn out when “trastuzumab-(Cys-L-SO1861)^4: SO1861-EMCH conjugated via cysteine residues to trastuzumab” was run?
A: The value was “could not induce any cell killing activity”.

Q: Which “cell killing activity (in words)” value (SK-BR-3 cells; alone) does the source give for “trastuzumab-(L-SO1861)^3, 8: trastuzumab with labile SO1861 only” here?
A: The value was “not observed”.

Entries after “also recorded” stand apart in the source; their conditions may differ.
